Assay outcomes (PubChem BioAssay)
UUG fidelity: modulators of yeast start codon fidelity, primary screen, whole organism, S. cerevisiae, single point, plate reader; S. cerevisiae UUG-firefly luciferase reporter, luminescence/redox ratio; activity score, % at 18.7 µM; 0.13% of 350,000 active; AID 602363, 2012;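 active = replicate mean at a twofold rise or more, about +100% in these data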;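 also: firefly luciferase made from a UUG start codon reports start codon fidelity; reporter light over untreated wells divided by growth signal over untreated wells; some hits fall short of that in this replicate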
INS-1E GSIS act: GLuc luminescence reporter in INS-1E cells, primary screen for activators of glucose-dependent secretion of insulin; INS-1E GLuc reporter insulin secretion, 2-3 h; activation, % at 16.6 µM; 0.61% of 370,000 active;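 active = lowest replicate activation of at least 40%, so every replicate reaches that level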
SR-BI DiI inh: inhibitors of SR-BI mediated HDL lipid uptake, primary screen, ldlA[mSR-BI] cells, fluorescence, single point; Scavenger receptor class B member 1 (Mus musculus), Q61009; ldlA[mSR-BI] CHO cells, DiI-HDL uptake fluorescence, 3 h; inhibition, % at 12.5 µM; 0.96% of 320,000 active; AID 488896, 2010;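 active = mean replicate inhibition of at least 70% and a set share of replicates each scoring 70 or more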
SR-BI uptake up: activators of SR-BI mediated DiI-HDL uptake, primary screen, ldlA[mSR-BI] CHO cells, DiI fluorescence; activation, % at 12.5 µM; 0.096% of 320,000 active; AID 504775, 2011; 3 h; 100 = double the neutral-control signal;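 active = mean replicate activation of at least 60% and every replicate at or above 60%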
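System: CHO ldlA[mSR-BI] cells / Medium: HEPES-buffered (25 mM, pH 7.4) F12 plus 0.5% BSA / Probe or stimulus: labelled HDL, 10 µg/mL / Doses: single compound concentration, delivered by pin transfer / Schedule: 3 h, 37 °C / Measured by: DiI fluorescence, bottom read / Measure: cell-associated DiI fluorescence as measure of HDL uptake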
Large screens that a line does not name were inactive. In the library only some 1.3% were active in any assay of this set; here they are far more common.

CCOC(=O)N1CCN(C(=S)NC(=O)c2cncc(Br)c2)CC1	SR-BI uptake up 68.6 (no result: UUG fidelity)
CCOC(=O)N1CCN(C(=S)NC(=O)c2ccc(Br)cc2)CC1	none (no result: UUG fidelity)
CC(=O)N(C)c1nc(-c2ccc(Cl)cc2)cs1	none (no result: INS-1E GSIS act)
COCCCN(C(C)=O)c1nc(-c2ccc(OC)cc2)cs1	SR-BI DiI inh 77.9 (no result: INS-1E GSIS act)
COc1ccccc1/C=N/N(C(C)=O)c1nc(-c2ccc(F)cc2)cs1	SR-BI DiI inh 82.2 (no result: UUG fidelity, INS-1E GSIS act)
COc1ccc(/C=N/N(C(C)=O)c2nc(-c3ccc(C)cc3)cs2)cc1	INS-1E GSIS act 146.4
CC(=O)N(/N=C/c1cccc(C)c1)c1nc(-c2ccc(Br)cc2)cs1	INS-1E GSIS act 110.2
COc1ccc(-c2csc(N(CCCN(C)C)C(=O)c3ccc(C)cc3)n2)cc1	none
CCN(CC)CCCN(C(=O)c1ccc(OC)cc1)c1nc(-c2ccc(OC)cc2)cs1	none
COc1ccc(S(=O)(=O)N(C)C[C@H]2Oc3ccc(NS(C)(=O)=O)cc3C(=O)N([C@@H](C)CO)C[C@H]2C)cc1	none (no result: SR-BI DiI inh, SR-BI uptake up)
CCOC(=O)N1CCN(CC(O)COc2ccccc2C(C)C)CC1 (stereo unspecified)	none (no result: INS-1E GSIS act)
CCN(CCNCC(O)COc1ccccc1C(C)C)c1cccc(C)c1 (stereo unspecified)	INS-1E GSIS act 382.6
C[C@H](CO)N1C[C@H](C)[C@@H](CN(C)S(C)(=O)=O)Oc2ccc(NC(=O)Nc3ccc(C(F)(F)F)cc3)cc2CC1=O	none (no result: UUG fidelity, SR-BI DiI inh, SR-BI uptake up)
O=C(CSCc1cccc(Br)c1)N=Nc1c(O)[nH]c2ccccc12	none (no result: UUG fidelity, INS-1E GSIS act)
O=Nc1c(-c2c(O)[nH]c3cc(Br)ccc23)[nH]c2ccccc12	SR-BI DiI inh 118.2
COc1ccc2c3c([nH]c2c1)[C@H](CO)N(Cc1cccc(Cl)c1)CC31CN(C(C)=O)C1	none (no result: UUG fidelity, SR-BI DiI inh, SR-BI uptake up)
Cc1cc2cc3c(cc2nc1SCC(=O)OC(C)C)OCO3	SR-BI DiI inh 78.2 (no result: INS-1E GSIS act)
Cc1cccc(NC(=O)C2CCN(S(=O)(=O)c3c(C)c(C)cc(C)c3C)CC2)n1	SR-BI DiI inh 72.8 (no result: UUG fidelity)
COc1ccc(N(C(=O)CCl)C(C(=O)NCCc2ccccc2)c2cccs2)cc1 (stereo unspecified)	INS-1E GSIS act 53.2
COc1ccc(CNC(=O)C(c2ccncc2)N(C(=O)Cc2cccs2)c2ccccc2)cc1 (stereo unspecified)	none (no result: UUG fidelity)
CCCN(C)C[C@H]1OCCCC[C@@H](C)Oc2ccc(NS(=O)(=O)c3cn(C)cn3)cc2C(=O)N([C@H](C)CO)C[C@@H]1C	none (no result: SR-BI DiI inh, SR-BI uptake up)
CSc1nc2c(c(=O)n1Cc1ccccc1)SC(C)C2 (stereo unspecified)	INS-1E GSIS act 44.8
CC(C)Sc1nc2c(c(=O)n1C)SC(C)C2 (stereo unspecified)	SR-BI uptake up 182.8 (no result: INS-1E GSIS act)
CC1Cc2nc(SCC(=O)N3CCOCC3)n(C)c(=O)c2S1 (stereo unspecified)	none (no result: INS-1E GSIS act)
CC(C)CC#Cc1ccc2c(c1)O[C@@H](CN(C)Cc1ccccc1)[C@H](C)CN([C@H](C)CO)S2(=O)=O	INS-1E GSIS act 345.6 (no result: UUG fidelity, SR-BI DiI inh, SR-BI uptake up)
C[C@@H]1CN([C@H](C)CO)S(=O)(=O)c2ccc(-c3ccc(F)cc3)cc2O[C@H]1CN(C)Cc1cccc(F)c1	INS-1E GSIS act 57.7 (no result: SR-BI DiI inh, SR-BI uptake up)
CC(C)CC#Cc1ccc2c(c1)O[C@H](CN(C)C(=O)C1CCCCC1)[C@@H](C)CN([C@@H](C)CO)S2(=O)=O	INS-1E GSIS act 55.3 (no result: SR-BI DiI inh, SR-BI uptake up)
C[C@H]1CN([C@@H](C)CO)S(=O)(=O)c2ccc(C#Cc3ccccc3)cc2O[C@@H]1CN(C)C(=O)CN(C)C	INS-1E GSIS act 48.2 (no result: SR-BI DiI inh, SR-BI uptake up)
CC(C)CC#Cc1ccc2c(c1)O[C@H](CN(C)Cc1ccccc1)[C@H](C)CN([C@H](C)CO)S2(=O)=O	none (no result: SR-BI DiI inh, SR-BI uptake up)
CC(=O)N[C@@H]1CC[C@@H](CCNC(=O)C2CCCC2)O[C@@H]1CO	none (no result: SR-BI DiI inh, SR-BI uptake up)
CCCNC(=O)C[C@@H]1CC[C@H]2[C@@H](COC[C@H](O)CN2C(=O)Nc2cccc(Cl)c2)O1	none (no result: UUG fidelity, SR-BI DiI inh, SR-BI uptake up)
NC1=NC[C@@H](Cc2ccc(O)cc2)N1CCC12CC3CC(CC(C3)C1)C2	INS-1E GSIS act 183.6
FC(F)(F)c1nc(SCc2ccc(Cl)cc2Cl)n[nH]1	none (no result: UUG fidelity, INS-1E GSIS act)
Cn1c(SCc2ccc(Cl)cc2Cl)nc(C(F)(F)F)cc1=O	INS-1E GSIS act 64.7
CCN(c1ccccc1)S(=O)(=O)c1ccc(OC)c(OC)c1	INS-1E GSIS act 55.3 (no result: UUG fidelity)
Nc1c(C(=O)Nc2ccc3c(c2)OCCO3)nnn1Cc1ccc(Cl)cc1	INS-1E GSIS act 45.0
Nc1c(C(=O)Nc2ccc3c(c2)OCCO3)nnn1Cc1cccc(F)c1	none
COc1cccc(CNC(=O)N[C@@H](CC(C)C)C(=O)O)c1	INS-1E GSIS act 50.3
C=CCC[C@@H](Cc1ccc(F)cc1)C(=O)OC[C@@H](Cc1c[nH]c2ccccc12)NC(=O)[C@@H](CC=C)CC(=O)N[C@@H](CO)Cc1ccccc1	SR-BI uptake up 74.2
C=CCC[C@H](Cc1ccc(F)cc1)C(=O)OC[C@@H](Cc1c[nH]c2ccccc12)NC(=O)[C@@H](CC=C)CC(=O)N[C@@H](CO)Cc1ccccc1	none (no result: INS-1E GSIS act)
C/C=C/c1cnc2c(c1)C(=O)N([C@H](C)CO)C[C@@H](C)[C@H](CN(C)C(=O)Cc1ccccc1)O2	none (no result: SR-BI DiI inh, SR-BI uptake up)
O=C(N=C1SC2CS(=O)(=O)CC2N1c1ccc(F)cc1F)C1CC1 (stereo unspecified)	none
O=C(N=C1SC2CS(=O)(=O)CC2N1c1ccc(F)c(Cl)c1)C1CC1 (stereo unspecified)	INS-1E GSIS act 41.8
Cc1ccc(S(=O)(=O)N(C)C[C@H]2OCCCC[C@H](C)Oc3ccc(NS(=O)(=O)c4c(C)noc4C)cc3C(=O)N([C@@H](C)CO)C[C@@H]2C)cc1	none (no result: SR-BI DiI inh, SR-BI uptake up)
COc1cc2c(cc1OC)[C@H](C)N(C(=O)NCc1ccccc1)CC2	INS-1E GSIS act 54.2
COc1cc2c(cc1OC)CN(C(=O)Cc1ccccc1)CC2	INS-1E GSIS act 62.7
C[C@@H]1CCCCO[C@@H](CN(C)C(=O)Nc2ccccc2)[C@H](C)CN([C@@H](C)CO)C(=O)c2cc(NC(=O)c3ccccc3)ccc2O1	none (no result: SR-BI DiI inh, SR-BI uptake up)
O=C(NNC(=O)c1ccncc1)Nc1ccc(N=Nc2ccccc2)cc1	SR-BI DiI inh 72.1 (no result: INS-1E GSIS act)
O=C(NNc1ccc([N+](=O)[O-])cn1)Nc1ccc(N=Nc2ccccc2)cc1	SR-BI DiI inh 100.3
O=C(NNc1ccc([N+](=O)[O-])cc1)Nc1ccccc1	none
O=C(Nc1ccc(F)cc1)N1CC(=O)N2[C@H](CO)[C@H](c3ccc(C#Cc4ccc(F)cc4)cc3)[C@@H]2C1	none (no result: UUG fidelity, SR-BI DiI inh, SR-BI uptake up)
COc1ccc2c3c([nH]c2c1)[C@@H](CO)N(C(=O)c1ccncc1)CC31CN(C(=O)NC(C)C)C1	none (no result: UUG fidelity, SR-BI DiI inh, SR-BI uptake up)
N#Cc1ccc(-c2ccc3c(c2)[C@@H]2[C@@H](CCN2C(=O)C2CCCC2)[C@@H](CO)N3)cc1	INS-1E GSIS act 40.9 (no result: UUG fidelity, SR-BI DiI inh, SR-BI uptake up)
Cc1ccccc1-c1ccc(C2[C@@H]3CN(Cc4cccnc4)C[C@H]2N3)cc1 (stereo partly specified)	none (no result: UUG fidelity, SR-BI DiI inh, SR-BI uptake up)
OCCNc1nc(-c2ccccc2)c2cc(Cl)ccc2n1	INS-1E GSIS act 48.3
O=C(COC(=O)COc1ccccc1)NCCC1=CCCCC1	SR-BI uptake up 73.3
